Publication PMC4485437 (Biochemistry, 2015)

Sequences of proteins named here, by UniProt entry; tags and fusion partners are left off. A change or cut given only in a name is not applied to a line headed by its entry.
UniProt Q9KPI8: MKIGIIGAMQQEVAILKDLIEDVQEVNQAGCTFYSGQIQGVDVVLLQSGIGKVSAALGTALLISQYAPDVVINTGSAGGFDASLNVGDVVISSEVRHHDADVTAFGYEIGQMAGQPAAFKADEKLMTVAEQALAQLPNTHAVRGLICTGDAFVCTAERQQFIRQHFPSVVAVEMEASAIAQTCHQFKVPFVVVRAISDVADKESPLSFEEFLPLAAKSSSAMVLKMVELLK

Molecular target: VcMTAN (WT) (Vibrio cholerae serotype O1, UniProt Q9KPI8)
Assay type: biochemical
Settings: read-out: Ki,MTDIA; 0.8 mM MTA

Compound: CSC[C@H]1CN(Cc2c[nH]c3c(N)ncnc23)C[C@@H]1O [MTDIA, 4′-deaza-1′-aza-2′-deoxy-1′-(9-[^14C]methylene)-Immucillin-A]
- Ki: 2.7 ± 0.2 pM
